We go through five molecules from ChEMBL document CHEMBL1135092, “Molecular design and structure--activity relationships leading to the potent, selective, and orally active thrombin active site inhibitor BMS-189664” (Bioorg Med Chem Lett, 2002).

This experiment concerns the target Prothrombin (Homo sapiens, UniProt P00734). Briefly: In vitro inhibitory activity against hydrolysis of human alpha thrombin.
Regarding `N=C(N)N1CCC(CNC(=O)[C@@H]2CCCN2C(=O)[C@@H](Cc2ccccc2)NS(=O)(=O)Cc2ccccc2)CC1`, the IC50 came out at 0.01 µM.
To `CS(=O)(=O)N[C@H](Cc1ccccc1)C(=O)N1CCC[C@H]1C(=O)NCCCCNC(=N)N` belongs 1.4 µM.
The result for `N=C(N)NCCCCNC(=O)[C@@H]1CCCN1C(=O)[C@@H](Cc1ccccc1)NS(=O)(=O)C(F)(F)F` reads 110 µM.
To `CS(=O)(=O)N[C@H](Cc1ccccc1)C(=O)N1CCC[C@H]1C(=O)NCCc1cnc[nH]1` belongs 134 µM; to `NC(=O)CC[C@@H](NS(=O)(=O)c1ccc2ccccc2c1)C(=O)N1CCC[C@H]1C(=O)NCCCCN=C(N)N`, 26.6 µM.
